Test [1] addresses αvβ3 integrin (human (endogenous in WM266)) (UniProt P06756).
Test [2] shares this target. The source holds these as a separate data set.
The target is the same in test [3]. The source holds these as a separate data set.
Test [4] shares this target. The source holds these as a separate data set.

Sequences of proteins named here, by UniProt entry; tags and fusion partners are left off. Residues count along the entry.
UniProt P06756, 31-1048, chain 1 of 2: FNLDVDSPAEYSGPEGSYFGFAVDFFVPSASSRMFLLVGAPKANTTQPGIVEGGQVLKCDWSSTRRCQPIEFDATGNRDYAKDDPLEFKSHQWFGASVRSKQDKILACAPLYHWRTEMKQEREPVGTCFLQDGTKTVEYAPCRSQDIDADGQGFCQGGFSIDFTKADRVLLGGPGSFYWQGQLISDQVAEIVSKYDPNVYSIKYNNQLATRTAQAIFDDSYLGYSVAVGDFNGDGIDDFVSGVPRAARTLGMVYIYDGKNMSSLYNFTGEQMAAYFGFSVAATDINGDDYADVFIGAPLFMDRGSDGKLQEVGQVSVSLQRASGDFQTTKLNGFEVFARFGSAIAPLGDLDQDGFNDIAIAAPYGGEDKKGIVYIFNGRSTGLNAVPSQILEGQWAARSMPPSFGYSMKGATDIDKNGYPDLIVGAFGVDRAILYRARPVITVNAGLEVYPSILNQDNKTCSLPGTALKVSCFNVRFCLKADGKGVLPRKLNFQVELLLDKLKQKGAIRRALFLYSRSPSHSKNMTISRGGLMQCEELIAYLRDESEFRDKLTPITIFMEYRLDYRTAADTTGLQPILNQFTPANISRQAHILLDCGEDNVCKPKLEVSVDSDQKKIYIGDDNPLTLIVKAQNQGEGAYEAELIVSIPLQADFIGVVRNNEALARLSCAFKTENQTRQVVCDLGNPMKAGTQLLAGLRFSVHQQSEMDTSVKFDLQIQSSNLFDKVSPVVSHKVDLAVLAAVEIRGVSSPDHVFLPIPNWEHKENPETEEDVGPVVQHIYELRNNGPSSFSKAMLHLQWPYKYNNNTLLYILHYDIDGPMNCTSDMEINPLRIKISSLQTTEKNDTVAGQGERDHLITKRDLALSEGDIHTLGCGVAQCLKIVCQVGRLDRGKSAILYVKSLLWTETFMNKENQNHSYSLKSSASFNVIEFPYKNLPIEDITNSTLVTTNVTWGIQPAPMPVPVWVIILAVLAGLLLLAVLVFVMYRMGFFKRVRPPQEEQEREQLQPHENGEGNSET

The values that follow come from PMC4172472.

The substance Cilengitide (peptide) had a detachment of adherent WM266 cells from vitronectin-coated plates (αvβ3 with vitronectin), peptide 50 µM, 2 h in test [1] of 60%.
The substance NBD-labeled RGDechi-hCit (peptide) gave a percentage of peptide internalised into WM266 cells, flow cytometry with dithionite quenching, peptide 10 µM, 30 min in test [2] of 90%.
In test [3], RGDechi-hCit (peptide) registered a decrease of adhesion of WM266 cells to fibronectin-coated plates (αvβ3 with fibronectin), peptide 50 µM, crystal violet of 40% and a decrease of adhesion of WM266 cells to vitronectin-coated plates (αvβ3 with vitronectin), peptide 50 µM, crystal violet of 70%. In test [4], this substance had an IC50 of inhibition of adhesion of WM266 cells to fibronectin-coated plates (αvβ3 with fibronectin) of 53 µM and an IC50 of inhibition of adhesion of WM266 cells to vitronectin-coated plates (αvβ3 with vitronectin) of 25.5 µM. Moreover, the detachment of adherent WM266 cells from vitronectin-coated plates (αvβ3 with vitronectin), peptide 50 µM, 2 h in test [1] amounted to 50%.
